Measured values: ChEMBL document CHEMBL3393034, “Discovery of piperidine ethers as selective orexin receptor antagonists (SORAs) inspired by filorexant” (Bioorg Med Chem Lett, 2015)

Protein sequences, listed by entry. Tags and fused reporters are not part of them.
UniProt O43613, whole entry: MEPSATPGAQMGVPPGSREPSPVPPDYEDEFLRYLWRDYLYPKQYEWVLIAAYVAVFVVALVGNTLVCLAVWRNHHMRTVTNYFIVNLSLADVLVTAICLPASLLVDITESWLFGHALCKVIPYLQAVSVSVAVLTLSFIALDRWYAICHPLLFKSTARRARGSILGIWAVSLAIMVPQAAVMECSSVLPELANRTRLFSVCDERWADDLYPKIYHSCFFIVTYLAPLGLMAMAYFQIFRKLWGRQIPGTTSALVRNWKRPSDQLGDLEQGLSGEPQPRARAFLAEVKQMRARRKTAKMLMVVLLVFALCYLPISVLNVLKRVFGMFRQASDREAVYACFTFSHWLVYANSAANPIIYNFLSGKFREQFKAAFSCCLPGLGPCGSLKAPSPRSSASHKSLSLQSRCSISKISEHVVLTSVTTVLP

Target: Orexin/Hypocretin receptor type 1 (Homo sapiens, UniProt O43613)
Assay: Antagonist activity at human OX1R by radioligand displacement assay
Outline: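 Radioligand-displacement binding assay at the human orexin receptor; affinity expressed as Ki; data for racemates unless otherwise noted.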

C[C@@H]1CC[C@@H](Oc2nccc3ccccc23)CN1C(=O)c1ccccc1-n1nccn1 (relative stereo)
Ki: 10.5 nM
